Article PMC4281105 (2014)
≈ marks a conversion by molar mass, not a printed value. Where “and” joins values, the source holds several entries; their conditions need not be identical. Equal values may be shown once.

Key:
hRSV strain Long = assay: hRSV CPE assay; format: cell-based, human respiratory syncytial virus; conditions: HEp-2 CC50 / RSV CPE EC50
RSV = assay: viral titer; format: cell-based, human respiratory syncytial virus; conditions: 10 µM
[1] = for aqueous stability, 1:1 PBS/ACN: percent parent remaining after 48 h in 1:1 PBS and acetonitrile; for aqueous stability, PBS: percent parent remaining after 48 h in PBS
in vitro [2] = conditions: human, HEp-2 cells
physchem = conditions: kinetic from dmso stock
[3] = at each of 3 pH levels
in vitro [4] = conditions: human, Fa2N-4 immortalized human hepatocytes

Structure (SMILES) | selectivity index (CC50/EC50) (hRSV strain Long) | viral titer reduction, fold as compared to control (RSV) | aqueous stability, 1:1 PBS/ACN [1] [%] | aqueous stability, PBS [1] [%] | CC50 at 5 days (in vitro [2]) [µM] | solubility (physchem; plasma or biological fluid) [µM] | passive permeability in words [3] | solubility (physchem; 23 °C, pH 7.4, aqueous buffer) [µM] | CC50 (in vitro [4]) [µM] | CC50 at 3 days (in vitro [2]) [µM] | improvement in PBS solubility over hit 2 [fold]
COCCCNC(=O)c1ccc(Cn2c(=O)c3ccccc3n(Cc3ccc(C)cc3)c2=O)cc1 [Compound 2, N-(3-Methoxypropyl)-4-((1-(4-methylbenzyl)-2,4-dioxo-1,2-dihydroquinazolin-3(4H)-yl)methyl)benzamide] | ~ 24 and >23.8 | ~ 14,000 fold | 94.0 | 88.1 | > 50 | 2.5 (≈ 1.18 µg/mL) |  |  |  |  | 
COCCCNC(=O)c1ccc(Cn2c(=O)c3ccccc3n(Cc3ccc([N+](=O)[O-])cc3)c2=O)cc1 [Compound 15, N-(3-Methoxypropyl)-4-((1-(4-nitrobenzyl)-2,4-dioxo-1,2-dihydroquinazolin-3(4H)-yl)methyl)benzamide] | >100.0 | > 400,000 fold | 94.9 | 83.4 | > 50 |  | Moderate to good | 1.3 (≈ 0.653 µg/mL) | > 50 |  | 
COCCCNC(=O)c1ccc(Cn2c(=O)c3ccccc3n(Cc3ccc(C(C)C)cc3)c2=O)cc1 [Compound 19, 4-((1-(4-isopropylbenzyl)-2,4-dioxo-1,2-dihydroquinazolin-3(4H)-yl)methyl)-N-(3-methoxypropyl)benzamide] | > 100 and >166.7 | > 400,000 fold |  | 27 |  |  |  |  | > 30 | > 50 | 
CNC(=O)c1ccc(Cn2c(=O)c3ccccc3n(Cc3ccc(C)cc3)c2=O)cc1 [Compound 34, N-Methyl-4-((1-(4-methylbenzyl)-2,4-dioxo-1,2-dihydroquinazolin-3(4H)-yl)methyl)benzamide] | 21.1 |  |  |  | 45.3 ± 1.7 |  |  |  |  |  | 
Cc1ccc(Cn2c(=O)n(Cc3ccc(C(=O)N(C)C)cc3)c(=O)c3ccccc32)cc1 [Compound 35, N,N-Dimethyl-4-((1-(4-methylbenzyl)-2,4-dioxo-1,2-dihydroquinazolin-3(4H)-yl)methyl)benzamide] | <0.2 |  |  |  | 10.1 ± 0.2 |  |  |  |  |  | 
O=C(NCC1COC1)c1ccc(Cn2c(=O)c3ccccc3n(Cc3ccc([N+](=O)[O-])cc3)c2=O)cc1 [Compound 43, 4-((1-(4-Nitrobenzyl)-2,4-dioxo-1,2-dihydroquinazolin-3(4H)-yl)-methyl)-N-(oxetan-3-ylmethyl)benzamide] | >38.5 |  |  |  | > 50 | 7.2 (≈ 3.6 µg/mL) |  | 1.4 (≈ 0.701 µg/mL) |  |  | 14
CC(C)c1ccc(Cn2c(=O)n(Cc3ccc(C(=O)NCC4COC4)cc3)c(=O)c3ccccc32)cc1 [Compound 44, 4-((1-(4-Isopropylbenzyl)-2,4-dioxo-1,2-dihydroquinazolin-3(4H)-yl)methyl)-N-(oxetan-3-ylmethyl)benzamide] | 9.0 |  |  |  | 3.6 ± 0.08 |  |  |  |  |  | 
CC(C)c1ccc(Cn2c(=O)n(Cc3ccc(C(=O)NCc4ccco4)cc3)c(=O)c3ccccc32)cc1 [Compound 48, N-(Furan-2-ylmethyl)-4-((1-(4-isopropylbenzyl)-2,4-dioxo-1,2-dihydroquinazolin-3(4H)-yl)methyl)benzamide] | >41.7 |  |  |  | > 50 |  |  | 0.3 (≈ 0.152 µg/mL) |  |  | 
COc1cc(NC(=O)c2ccc(Cn3c(=O)c4ccccc4n(Cc4ccc(C(C)C)cc4)c3=O)cc2)ccn1 [Compound 50, 4-((1-(4-Isopropylbenzyl)-2,4-dioxo-1,2-dihydroquinazolin-3(4H)-yl)methyl)-N-(2-methoxypyridin-4-yl)benzamide] | <3.3 |  |  |  | < 1.6 |  |  |  |  |  | 
